Chains of the proteins cited; added tags and fusions are not shown. Lines headed by an entry give the natural chain unless they say otherwise; changes in a name come on top.
UniProt P18031: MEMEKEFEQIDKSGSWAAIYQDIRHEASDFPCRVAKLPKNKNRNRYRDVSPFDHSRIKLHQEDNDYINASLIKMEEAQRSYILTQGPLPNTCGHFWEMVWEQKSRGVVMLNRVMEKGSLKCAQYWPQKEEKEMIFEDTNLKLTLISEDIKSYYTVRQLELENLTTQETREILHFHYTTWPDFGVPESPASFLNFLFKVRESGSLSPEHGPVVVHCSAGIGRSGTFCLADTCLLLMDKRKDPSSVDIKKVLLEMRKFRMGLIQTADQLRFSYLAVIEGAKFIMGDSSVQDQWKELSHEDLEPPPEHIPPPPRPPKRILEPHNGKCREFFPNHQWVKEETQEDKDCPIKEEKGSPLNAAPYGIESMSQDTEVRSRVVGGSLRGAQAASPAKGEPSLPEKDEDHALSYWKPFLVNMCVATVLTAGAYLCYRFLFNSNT

According to US6121271A, “Naphtho[2,3-B]heteroar-4-yl derivatives” (American Home Products Corporation, priority 1999, dated 2000):

Target: recombinant, human protein tyrosine phosphatase (PTP) 1B (Homo sapiens, UniProt P18031)
Assay: Inhibition of tri-phosphorylated insulin receptor dodecaphosphopeptide dephosphorylation by hPTP1B (malachite green-ammonium molybdate method)
Conditions: 50 μM IR triphosphopeptide substrate, 37° C.

Work on Ammonium molybdate tetrahydrate yielded an IC50 of 8.7 µM.
